Test results taken from US9670200B2, “Quaternary ammonium salt prodrugs” (Alkermes Pharma Ireland Limited, priority 2010, dated 2017).

Excerpt: At pH 4 and 5, 0.1 M citrate buffers were used, while for pH 6, 7 and 8a set of 0.1 M phosphate buffers were used. Each buffer also contained 0.2 M NaCl. No cosolvents or other potentially solubilizing components were included. Buffer preparations were subdivided in order to individually test the solubility of only one material in a given buffer sample.

## Cc1cc2c(s1)=Nc1ccccc1NC=2N1CCN(C)CC1 [olanzapine base, 2-methyl-4-(4-methyl-1-piperazinyl)-10H-thieno[2,3-b][1,5]benzodiazepine]
  variation in solubility across the pH range studied: > 1000 fold
